In one assay the target is mouse EP1 (Mus musculus, UniProt P35375). Put plainly: Binding assay using expression cell of prostanoid receptor subtype (EP1; competition of specific 3H-PGE2 binding to CHO cell membrane fraction). The settings on record: read-out: dissociation constant to receptor subtype, Ki (EP1), compounds of Related Arts (1) and (2), Table 2, same experiment as Table 1.
The next assay deals with mouse EP3 (Mus musculus, UniProt P30557). Put plainly: Binding assay using expression cell of prostanoid receptor subtype (EP3; competition of specific 3H-PGE2 binding to CHO cell membrane fraction). Conditions: read-out: dissociation constant to receptor subtype, Ki (EP3), compounds of Related Arts (1) and (2), Table 2, same experiment as Table 1.

Sequences of proteins named here, by UniProt entry; tags and fusion partners are left off.
UniProt P35375, whole entry: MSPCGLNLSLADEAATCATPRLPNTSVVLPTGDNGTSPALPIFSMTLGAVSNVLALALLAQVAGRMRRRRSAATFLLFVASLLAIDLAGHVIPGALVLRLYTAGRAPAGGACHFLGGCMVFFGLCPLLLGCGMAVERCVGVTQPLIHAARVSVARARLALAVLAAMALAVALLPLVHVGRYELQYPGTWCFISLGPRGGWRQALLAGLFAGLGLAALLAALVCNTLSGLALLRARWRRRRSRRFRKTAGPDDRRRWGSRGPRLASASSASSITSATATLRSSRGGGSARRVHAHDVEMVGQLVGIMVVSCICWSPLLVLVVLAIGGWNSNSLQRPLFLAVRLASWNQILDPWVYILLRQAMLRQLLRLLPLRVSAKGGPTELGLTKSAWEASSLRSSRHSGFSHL
UniProt P30557, whole entry: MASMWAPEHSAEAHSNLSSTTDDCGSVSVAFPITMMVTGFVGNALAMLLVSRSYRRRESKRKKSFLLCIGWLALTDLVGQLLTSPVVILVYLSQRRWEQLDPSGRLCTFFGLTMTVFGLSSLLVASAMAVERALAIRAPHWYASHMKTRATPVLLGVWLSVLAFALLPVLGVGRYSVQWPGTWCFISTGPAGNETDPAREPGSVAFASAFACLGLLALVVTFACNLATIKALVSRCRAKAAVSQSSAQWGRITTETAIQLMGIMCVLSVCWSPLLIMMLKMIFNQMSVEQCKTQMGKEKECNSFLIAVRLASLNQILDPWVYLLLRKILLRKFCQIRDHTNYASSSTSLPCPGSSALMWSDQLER

This note sets out measurements from patent US6235777A, “Benzenesulfonamide compounds” (Ono Pharmaceutical Co., Ltd., priority 1997, dated 2001).

By Ki is commonly meant a dissociation constant, usually derived from enzyme kinetics or from competition with a known ligand.

Regarding `Cc1ccc(S(=O)(=O)NCC2C3C=CC(C3)C2/C=C\CCCC(=O)O)cc1` (stereo not drawn), the Ki on mouse EP1 is 3600 nM; on mouse EP3, 480 nM.
Regarding `Cc1ccc(S(=O)(=O)NC2C3CCC(CC3)C2CC=CCCCC(=O)O)cc1` (stereo not drawn), the Ki on mouse EP1 amounted to 1300 nM; on mouse EP3 it was 170 nM.
The matching figures for `O=C(O)CCC/C=C\C1C2C=CC(C2)C1CNS(=O)(=O)c1ccc(Br)cc1` (stereo not drawn): 190 nM and 140 nM.
As to `O=C(O)CCCC=CC1CCCCC1CNS(=O)(=O)c1ccc(Br)cc1` (stereo not drawn), the Ki stood at 69 nM on mouse EP1 and 95 nM at mouse EP3.
The matching figures for `O=C(O)CCCC=CCC1CCCCC1NS(=O)(=O)C=Cc1ccccc1` (stereo not drawn): 2300 nM and 13 nM.
Turning to `O=C(O)CCCC=CCC1C2CCC(C2)C1NS(=O)(=O)C=Cc1ccccc1` (stereo not drawn), the Ki at mouse EP1 is greater than 10000 nM; on mouse EP3 it was 2.7 nM.
